Results on one compound are retold here after PMC6838339, “Discovery of Novel Multi-target Inhibitor of angiotensin type 1 receptor and neprilysin inhibitors from Traditional Chinese Medicine” (Scientific Reports, 2019).

pIC50: −log10 of the molar value.

In the experiment the target is T1, Angiotensin II type-1 receptor (AT1) (Homo sapiens, UniProt P30556).
T1 construct: gene AGTR1
Put plainly: FLIPR calcium influx assay in HEK293/Ga15/AT1 cells, angiotensin II stimulated. The class given is cell-based.

The term pIC50 denotes the negative decadic logarithm of the IC50, by convention in mol/L. As for `CCCc1nc2c(C)cc(-c3nc4ccccc4n3C)cc2n1Cc1ccc(-c2ccccc2C(=O)O)cc1` [telmisartan], the pIC50 is 8.74.
